Assay [1] deals with T1, CXCR4 (Homo sapiens, UniProt P61073). The experiment in a line: Fluorescent binding assay on whole living cells, CXCL12-TR competition on HEK293 EGFP-hCXCR4. The arrangement: expressed in transfected cells. The note with it: CXCR4 expressing HEK293 cells. As to the method:
FIG. 17. CXCR4 antagonistic activities of ALB derivatives. […] CXCR4 or CCR5 expressing HEK293 cells were treated with CXCR4 agonist CXCL12 (10 nM) or CCR5 agonist CCL5 (20 nM), respectively, in the absence (no ALB) or presence of indicated ALB derivatives (50 μM). Calcium responses were recorded as described. Data shown are mean values±standard deviation derived from duplicates relative to peak calcium responses after treatment with agonists only (100%). […] CXCR4 expressing HEK293 cells were treated with Texas Red labeled CXCL12 (CXCL12-Tr) in the presence or absence of ALB peptides. Real-time fluorescence monitoring of ligand-receptor interactions was carried out as described.

Protein sequences, listed by entry. Tags and fused reporters are not part of them.
UniProt P61073, whole entry: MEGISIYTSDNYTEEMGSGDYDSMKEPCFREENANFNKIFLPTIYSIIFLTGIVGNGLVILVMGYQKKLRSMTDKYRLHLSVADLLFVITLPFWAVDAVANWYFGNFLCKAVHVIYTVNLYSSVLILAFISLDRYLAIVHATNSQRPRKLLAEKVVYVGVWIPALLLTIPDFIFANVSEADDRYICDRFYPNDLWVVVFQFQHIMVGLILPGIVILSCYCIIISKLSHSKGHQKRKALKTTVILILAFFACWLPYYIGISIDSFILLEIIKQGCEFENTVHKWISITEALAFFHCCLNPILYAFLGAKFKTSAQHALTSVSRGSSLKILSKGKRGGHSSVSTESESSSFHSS

The target of assay [2] is T1, CXCR4. The experiment in a line: Ca2+ mobilization in CXCR4 expressing HEK293 cells (indo-1). In kind it is cell-based. The arrangement: expressed in transfected cells. The note with it: 50 μM derivative, 10 nM CXCL12. As to the method: Ca^2+ responses were recorded.
FIG. 17. CXCR4 antagonistic activities of ALB derivatives. […] CXCR4 or CCR5 expressing HEK293 cells were treated with CXCR4 agonist CXCL12 (10 nM) or CCR5 agonist CCL5 (20 nM), respectively, in the absence (no ALB) or presence of indicated ALB derivatives (50 μM). Calcium responses were recorded as described. Data shown are mean values±standard deviation derived from duplicates relative to peak calcium responses after treatment with agonists only (100%). […] CXCR4 expressing HEK293 cells were treated with Texas Red labeled CXCL12 (CXCL12-Tr) in the presence or absence of ALB peptides. Real-time fluorescence monitoring of ligand-receptor interactions was carried out as described. Shown are bound CXCL12-Tr levels in the presence of ALB peptides relative to CXCL12-Tr only treated cells (100% bound). Values were derived from a duplicate experiment.
Background: A change in cytosolic calcium serves as a functional read-out for many receptors and channels.

As for `CC(C)C[C@H](NC(=O)[C@@H](NC(=O)[C@@H]1CCCN1C(=O)[C@@H](NC(=O)[C@H](CO)NC(=O)[C@@H](NC(=O)[C@H](CCC(N)=O)NC(=O)[C@@H]1CCCN1C(=O)[C@@H](NC(=O)[C@H](CCCCN)NC(=O)[C@H](CCCCN)NC(=O)[C@@H](NC(=O)[C@H](Cc1ccc(O)cc1)NC(=O)[C@H](CCCNC(=N)N)NC(=O)[C@@H](N)C(C)C)[C@@H](C)O)C(C)C)C(C)C)[C@@H](C)O)[C@@H](C)O)C(=O)O` [ALB409-423, VRYTKKVPQVSTPTL], the “inhibition of binding of CXCL12-Tr to the CXCR4 receptor by ALB derivatives” value at CXCR4 [1] is given as “did not inhibit”. Further, the “inhibition of CXCL12 mediated Ca2+ responses by ALB derivatives” value at CXCR4 [2] is “did not inhibit”.

Source of the values: patent US9045563B2, “CXC chemokine receptor 4 (CXCR4) antagonistic polypeptide” (priority 2007, dated 2015).
